From BindingDB's records for patent US20240294545 (Cspc Zhongqi Pharmaceutical Technology (Shijiazhuang), 2024)

The chains behind the UniProt entries cited, without tags or fusion partners. Where a name states a change or a piece, a line headed by the entry shows the natural chain unless it says otherwise.
UniProt Q13315: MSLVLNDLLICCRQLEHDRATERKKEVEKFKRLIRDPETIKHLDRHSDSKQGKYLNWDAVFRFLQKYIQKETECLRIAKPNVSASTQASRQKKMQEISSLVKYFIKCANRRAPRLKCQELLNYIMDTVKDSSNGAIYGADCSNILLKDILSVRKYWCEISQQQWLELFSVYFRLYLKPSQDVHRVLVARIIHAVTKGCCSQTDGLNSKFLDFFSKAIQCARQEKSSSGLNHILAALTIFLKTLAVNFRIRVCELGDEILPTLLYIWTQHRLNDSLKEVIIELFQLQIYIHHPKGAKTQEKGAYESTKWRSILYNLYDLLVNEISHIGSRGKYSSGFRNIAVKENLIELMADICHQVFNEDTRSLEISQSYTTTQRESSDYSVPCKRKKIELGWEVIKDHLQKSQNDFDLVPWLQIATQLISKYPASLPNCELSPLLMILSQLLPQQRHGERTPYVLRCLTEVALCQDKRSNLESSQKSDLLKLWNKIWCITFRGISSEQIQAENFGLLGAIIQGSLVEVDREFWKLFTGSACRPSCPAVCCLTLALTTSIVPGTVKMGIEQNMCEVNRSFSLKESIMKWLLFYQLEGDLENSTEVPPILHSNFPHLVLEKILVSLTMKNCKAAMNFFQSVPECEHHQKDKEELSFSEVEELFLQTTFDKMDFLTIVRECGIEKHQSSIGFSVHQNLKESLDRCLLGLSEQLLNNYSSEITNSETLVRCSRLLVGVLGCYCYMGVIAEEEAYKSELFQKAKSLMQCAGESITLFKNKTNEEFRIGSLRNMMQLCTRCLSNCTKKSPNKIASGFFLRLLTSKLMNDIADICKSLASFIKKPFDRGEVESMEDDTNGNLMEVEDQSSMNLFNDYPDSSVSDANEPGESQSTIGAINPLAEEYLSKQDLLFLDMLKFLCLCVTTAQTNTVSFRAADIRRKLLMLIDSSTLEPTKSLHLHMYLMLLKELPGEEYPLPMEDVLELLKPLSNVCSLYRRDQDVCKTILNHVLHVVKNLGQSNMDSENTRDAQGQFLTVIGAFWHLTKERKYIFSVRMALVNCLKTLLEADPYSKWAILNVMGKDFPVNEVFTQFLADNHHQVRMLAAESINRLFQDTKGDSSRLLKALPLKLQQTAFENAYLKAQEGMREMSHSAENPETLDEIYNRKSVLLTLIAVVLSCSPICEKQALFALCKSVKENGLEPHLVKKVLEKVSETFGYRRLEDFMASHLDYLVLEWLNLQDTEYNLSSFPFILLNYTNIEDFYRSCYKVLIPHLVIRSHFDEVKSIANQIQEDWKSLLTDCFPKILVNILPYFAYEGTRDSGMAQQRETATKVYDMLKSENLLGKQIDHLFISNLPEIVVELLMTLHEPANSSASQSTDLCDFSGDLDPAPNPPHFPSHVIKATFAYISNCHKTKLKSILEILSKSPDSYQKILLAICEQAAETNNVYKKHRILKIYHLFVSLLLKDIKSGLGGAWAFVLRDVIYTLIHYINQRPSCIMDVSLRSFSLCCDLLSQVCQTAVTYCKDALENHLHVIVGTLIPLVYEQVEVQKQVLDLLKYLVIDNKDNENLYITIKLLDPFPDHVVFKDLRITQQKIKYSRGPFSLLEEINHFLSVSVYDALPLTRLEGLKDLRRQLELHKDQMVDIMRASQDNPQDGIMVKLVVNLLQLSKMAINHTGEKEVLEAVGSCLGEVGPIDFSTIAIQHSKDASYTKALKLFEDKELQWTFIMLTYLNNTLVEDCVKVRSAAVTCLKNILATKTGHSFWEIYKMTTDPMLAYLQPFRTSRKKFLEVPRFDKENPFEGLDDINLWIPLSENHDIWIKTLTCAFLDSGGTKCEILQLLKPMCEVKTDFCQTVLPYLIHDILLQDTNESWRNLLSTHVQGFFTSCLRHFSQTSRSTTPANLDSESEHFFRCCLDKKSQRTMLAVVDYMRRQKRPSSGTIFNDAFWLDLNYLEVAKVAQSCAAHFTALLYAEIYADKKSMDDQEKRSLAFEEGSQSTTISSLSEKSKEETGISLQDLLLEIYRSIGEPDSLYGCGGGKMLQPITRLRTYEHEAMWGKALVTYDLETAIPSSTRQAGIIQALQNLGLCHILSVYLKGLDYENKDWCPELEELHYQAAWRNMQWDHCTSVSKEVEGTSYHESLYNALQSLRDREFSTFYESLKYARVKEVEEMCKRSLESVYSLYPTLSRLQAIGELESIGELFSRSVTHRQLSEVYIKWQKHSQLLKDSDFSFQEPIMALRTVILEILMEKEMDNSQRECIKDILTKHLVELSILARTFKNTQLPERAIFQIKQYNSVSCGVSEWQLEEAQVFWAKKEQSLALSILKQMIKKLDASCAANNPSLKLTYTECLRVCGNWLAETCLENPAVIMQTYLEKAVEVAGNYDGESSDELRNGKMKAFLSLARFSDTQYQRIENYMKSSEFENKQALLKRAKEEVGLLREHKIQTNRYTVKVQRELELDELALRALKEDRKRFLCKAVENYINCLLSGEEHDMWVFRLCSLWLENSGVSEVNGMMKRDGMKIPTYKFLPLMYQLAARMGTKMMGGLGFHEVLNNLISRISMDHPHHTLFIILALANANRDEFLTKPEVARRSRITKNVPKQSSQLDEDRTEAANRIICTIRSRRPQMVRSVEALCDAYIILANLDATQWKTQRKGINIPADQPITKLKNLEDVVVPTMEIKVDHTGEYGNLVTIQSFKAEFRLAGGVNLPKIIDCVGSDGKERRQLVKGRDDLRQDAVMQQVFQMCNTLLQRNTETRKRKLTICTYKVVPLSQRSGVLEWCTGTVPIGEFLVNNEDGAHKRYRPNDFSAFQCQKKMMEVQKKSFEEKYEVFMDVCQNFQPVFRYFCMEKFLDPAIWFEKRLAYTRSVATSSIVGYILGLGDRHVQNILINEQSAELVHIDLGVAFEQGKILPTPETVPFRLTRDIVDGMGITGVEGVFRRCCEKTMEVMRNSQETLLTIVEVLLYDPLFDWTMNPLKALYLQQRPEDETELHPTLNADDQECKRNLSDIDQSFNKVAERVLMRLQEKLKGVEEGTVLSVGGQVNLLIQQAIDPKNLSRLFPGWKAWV

Target: Serine-protein kinase ATM (Homo sapiens, UniProt Q13315)
Assay: Inhibitory Activities of Compounds on ATM
Procedure: (1) Preparation of 1× kinase basal buffer and reaction termination solution1) 1× kinase basal buffer50 mM HEPES, pH 7.50.0015% Brij-35 (polyoxyethylene lauryl ether)100 mM Na3VO45 M NaCl1 M MgCl21 M MnCl22) Reaction termination solution100 mM HEPES, pH 7.50.015% Brij-350.2% Coating Reagent #350 mM EDTA(2) Preparation of test compound1) Dissolution and dilution of compound: a compound was dissolved into DMSO to yield a 10 mM or 5 mM stock solution. To a 96-well plate, 98 μL of DMSO and 2 μL of the 10 mM stock solution were added and mixed evenly so that the concentration of the solution was 200 μM. […]

**Q.** How did the IC50 turn out when `CN1CCN(CCCOc2ccc(-c3c(F)cc4ncc5c6c4c3OCC3(CCC3)n6c(=O)n5C)cn2)CC1` [US20240294545, Compound A-164] was run?
**A.** The IC50 was 0.59 nM.
